Values quoted from earlier work as cited in patent US20110182943A1, “METHODS OF IMMUNE OR HEMATOLOGICAL ENHANCEMENT, INHIBITING TUMOUR FORMATION OR GROWTH, AND TREATING OR PREVENTING CANCER, CANCER SYMPTOMS, OR THE SYMPTOMS OF CANCER TREATMENTS” (FONTERRA CO-OPERATIVE GROUP LIMITED, priority 2007, published 2011).

Settings: cited from earlier work

Substance: vitamin D
- safety of daily intake (daily intakes of 10,000 IU in humans (in the absence of sunshine)): safe
- daily ingestion after which most cases of vitamin D toxicity have been reported (for several years): greater than 50,000 IU daily
